Molecular target: T1, Cholesteryl ester transfer protein (Oryctolagus cuniculus, UniProt P22687)
T1 sequence (P22687 whole entry): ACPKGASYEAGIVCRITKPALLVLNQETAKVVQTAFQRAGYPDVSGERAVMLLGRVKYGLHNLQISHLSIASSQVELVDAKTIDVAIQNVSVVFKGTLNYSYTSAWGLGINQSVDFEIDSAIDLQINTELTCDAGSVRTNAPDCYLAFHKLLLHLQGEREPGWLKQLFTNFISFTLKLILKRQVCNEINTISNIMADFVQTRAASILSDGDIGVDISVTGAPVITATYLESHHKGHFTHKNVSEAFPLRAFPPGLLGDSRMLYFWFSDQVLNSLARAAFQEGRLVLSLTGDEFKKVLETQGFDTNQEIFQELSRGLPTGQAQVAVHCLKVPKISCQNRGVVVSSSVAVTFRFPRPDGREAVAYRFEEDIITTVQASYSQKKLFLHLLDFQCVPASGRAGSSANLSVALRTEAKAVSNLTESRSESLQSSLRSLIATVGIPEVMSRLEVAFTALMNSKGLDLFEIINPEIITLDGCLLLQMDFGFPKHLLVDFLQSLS
Experiment: Inhibition of CETP in rabbit serum after 1 hr by fluorescent cholesteryl esters transfer assay

Molecule Cn1cccc1-c1cccc(CN(CC(O)C(F)(F)F)c2cccc(Oc3ccccc3)c2)c1 (stereo unspecified) has an IC50 of 6.79 µM.

Source: ChEMBL document CHEMBL1165848, “Discovery of new cholesteryl ester transfer protein inhibitors via ligand-based pharmacophore modeling and QSAR analysis followed by synthetic exploration” (Eur J Med Chem, 2010)
